## Antibody variant affinities, Ab-14 light chain, assay 1

Target: peptide PDVDLGDISGINAS, taken from heptad repeat 2 (HR2) of SARS-CoV-2 spike.

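The starting antibody came from a phage panning campaign against this peptide. The library (AAYL50) carries one to three amino acid substitutions per variant, with no insertions or deletions. The assay is AlphaSeq: two haploid yeast populations carry antibody and antigen on their surface. Mating (16 h, 30 °C) was followed by selection of diploids and sequencing of their barcodes. Each replicate has its own calibration line, from reference interactions of the BCL2 family. There are three technical replicates.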

Parent scFv Ab-14: VH joined to VL by a (GGGGS)3 linker. Changes lie in the light chain CDRs alone.
VH: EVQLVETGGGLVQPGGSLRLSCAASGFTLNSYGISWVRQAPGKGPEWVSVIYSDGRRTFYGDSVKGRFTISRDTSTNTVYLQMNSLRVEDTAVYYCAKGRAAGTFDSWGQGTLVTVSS
VL: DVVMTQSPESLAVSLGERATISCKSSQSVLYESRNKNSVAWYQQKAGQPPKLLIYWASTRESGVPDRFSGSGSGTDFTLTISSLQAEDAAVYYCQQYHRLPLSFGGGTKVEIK

The parent's light chain CDRs are KSSQSVLYESRNKNSVA, WASTRES, QQYHRLPLS; each variant's own CDRs replace them letter for letter.
The read-out is the apparent dissociation constant on a log10 scale (nM): the lower, the stronger.
A pair that was not seen in that replicate is written "nd"; this usually means weak binding, but a binder can also be missed.
As a blank, each scFv also met three strains without target: over library AAYL50, 18% of these pairings were detected, typically at 4.19 and seldom below 2.99. Also given: how often the same scFv was detected with the empty control strains.

The variant KSSQSVLYESANKNSVA, WVSTRES, QQYHGLPLS showed 1.37, 1.45, 1.55 (controls 2 of 9).
The variant KPSQSTLYESRCKNSVA, WASTRES, QQYHRLPLS showed nd, 3.34, nd (controls 0 of 9).
The variant KSSQSVLNESRNKNPVA, WASTRES, QQYHRLPLS showed 0.57, 0.72, 0.71 (controls 3 of 9).
The variant KSSQTVLYESRNKNSVV, WAPTRES, QQYHRLPLS showed nd, nd, nd (controls 1 of 9).
The variant KSSQSVLYESRNKNSVP, WAETLES, QQYHRLPLS showed nd, nd, nd (controls 1 of 9).
The variant KSSQSVCYESRNKNSVA, WASTRDS, LQYHRLPLS showed 2.00, 1.76, 2.18 (controls 2 of 9).
The variant ISYQSVLYESRNKNSVA, VASTRES, QQYHRLPLS showed 3.93, nd, 6.30 (controls 2 of 9).
The variant LSSQSVLYELRNKNSVQ, WASTRES, QQYHRLPLS showed nd, nd, nd (controls 1 of 9).
The variant KNSQSVLYESRNKNSVA, WASTRES, QQYHVLPLS showed 1.72, 1.76, 1.87 (controls 0 of 9).
The variant KSSQSVLYEDRNNNSVA, WASTRES, QQYHRLTLS showed nd, nd, nd (controls 0 of 9).
The variant KMSQSELYESRNKNSVA, WASTRES, QQYMRLPLS showed 1.58, 1.90, 1.58 (controls 6 of 9).
The variant KISQSVLYESRNKNSVA, WASTRES, QMYHRLPVS showed nd, nd, nd (controls 0 of 9).
The variant KSSQSRLWESRNKNSVA, CASTRES, QQYHRLPLS showed 1.97, 1.73, 1.98 (controls 3 of 9).
The variant KSSQSVGYESWNKNSVA, WAHTRES, QQYHRLPLS showed nd, nd, nd (controls 0 of 9).
The variant KSSGSVLYESRNKNSVA, WASTDES, QQYHRLPLP showed nd, 5.27, nd (controls 2 of 9).
The variant KSSQSVLYESRNKNSVA, PASIRES, QQYHRLPCS showed 4.50, 4.14, 4.02 (controls 7 of 9).
The variant KSAQSVLYESRNKNSVA, WAVTRES, QQYERLPLS showed 2.95, 2.79, 4.42 (controls 3 of 9).
The variant WSSQSVLYESRNKNSVA, WASTRES, QQYHRIPLS showed 4.01, 3.97, 4.73 (controls 1 of 9).
The variant KSSVSVLYESRNKNSVT, WASTRES, QQTHRLPLS showed nd, nd, nd (controls 0 of 9).
The variant KSSQSVLYESRNKYSVA, WASTSES, QQYHELPLS showed nd, nd, nd (controls 0 of 9).
The variant KSSQSVLYESRNKNSVA, WASTRES, QQYHRLTRI showed 3.25, 1.69, 3.24 (controls 1 of 9).
The variant KSSQSVLSESRNKNCVA, WASTRES, TQYHRLPLS showed nd, nd, nd (controls 0 of 9).
The variant KSSQSVLYESRNFNSVA, WAWTRES, QQYHKLPLS showed 2.96, 2.53, 2.58 (controls 3 of 9).
The variant KSSQSVLYESRLDNSVR, WASTRES, QQYHRLPLS showed nd, nd, nd (controls 1 of 9).
The variant KSSQNVYYESRNKNSVA, WASTRES, QQYHRLPNS showed 2.21, 2.45, 2.17 (controls 1 of 9).
The variant KSQQSVLYESRNKNSYA, WASTRES, QQYHRLPLS showed 4.20, nd, nd (controls 0 of 9).
The variant KSSQSVLYESRNQNSVA, QASTRES, QQYHILPLS showed 0.04, 0.34, 0.08 (controls 1 of 9).
The variant KSTQSVLYESRNKNSVA, WASTTMS, QQYHRLPLS showed 2.47, 2.58, 2.99 (controls 1 of 9).
The variant KSSQWVSYESRNKNKVA, WASTRES, QQYHRLPLS showed 1.91, 1.55, 1.76 (controls 1 of 9).
The variant KSSQSVLFESRNKNSVA, DASTRES, QQYHRLPLS showed -0.90, -0.40, -0.72 (controls 2 of 9).
The variant KSSQSVLYESRNKNSVA, WASTRES, QQYCCIPLS showed 3.43, nd, 4.88 (controls 4 of 9).
The variant KSSQSVLYESRNKNSVA, PASTRES, QWWHRLPLS showed nd, 5.30, nd (controls 3 of 9).
The variant KSSQSVLYESRFKSSVA, WASTREY, QQYHRLPLS showed 2.74, nd, nd (controls 0 of 9).
The variant KSSQSVLYASRNKNSVK, WASTRES, QQYHRLPLS showed nd, 4.78, nd (controls 2 of 9).
The variant KSSQSVLYESRNKNSVA, WASTRES, VQYHRWILS showed 5.53, nd, nd (controls 3 of 9).
The variant KSSQSVLYESNIKNSGA, WASTRES, QQYHRLPLS showed nd, 3.71, nd (controls 1 of 9).
The variant KSSQSVLTESRMKNSVA, WASTRES, QQYHWLPLS showed 3.33, 2.72, 3.96 (controls 2 of 9).
The variant KSSQSVLYESRNKNSVA, EASTRES, FQYHFLPLS showed nd, nd, nd (controls 2 of 9).
The variant KPSQSVLIEYRNKNSVA, WASTRES, QQYHRLPLS showed nd, nd, 4.61 (controls 0 of 9).
The variant KSSQSVLYESRNWNSVA, WASTRES, QQYHRLPGS showed 1.20, 1.18, 1.14 (controls 2 of 9).
The variant KSSQSVLYEVRNKNSVA, WASHRES, QQYHRDPLS showed nd, nd, nd (controls 0 of 9).
The variant KSSQSVQYESRIKNSVA, WASTRES, QQYHRLPLS showed 1.33, 1.56, 1.64 (controls 3 of 9).
The variant ESSQSVLFESRNKNSVH, WASTRES, QQYHRLPLS showed 0.63, 1.21, 0.79 (controls 4 of 9).
The variant KSSQSVLRESRNKNSVA, WASTRES, QYYHRLSLS showed 2.15, 1.61, 1.83 (controls 0 of 9).
The variant KSSQSVLYYSRNKNSVA, WASTPES, QQYHYLPLS showed nd, 4.45, nd (controls 3 of 9).

The first 6 variants above that were never detected:

CDR-L1,CDR-L2,CDR-L3,"log10 Kd, replicates",empty controls
KSSQTVLYESRNKNSVV,WAPTRES,QQYHRLPLS,"nd, nd, nd",1/9
KSSQSVLYESRNKNSVP,WAETLES,QQYHRLPLS,"nd, nd, nd",1/9
LSSQSVLYELRNKNSVQ,WASTRES,QQYHRLPLS,"nd, nd, nd",1/9
KSSQSVLYEDRNNNSVA,WASTRES,QQYHRLTLS,"nd, nd, nd",0/9
KISQSVLYESRNKNSVA,WASTRES,QMYHRLPVS,"nd, nd, nd",0/9
KSSQSVGYESWNKNSVA,WAHTRES,QQYHRLPLS,"nd, nd, nd",0/9

Values reported by Engelhart et al. 2022, doi:10.1038/s41597-022-01779-4 (FLAb copy).